Our source for the IC50 values is ChEMBL document CHEMBL2311417, “Synthesis and biological evaluation of N-aryl-7-methoxybenzo[b]furo[3,2-d]pyrimidin-4-amines and their N-arylbenzo[b]thieno[3,2-d]pyrimidin-4-amine analogues as dual inhibitors of CLK1 and DYRK1A kinases” (Eur J Med Chem, 2013).

The chains behind the UniProt entries cited, without tags or fusion partners.
UniProt Q00535, whole entry: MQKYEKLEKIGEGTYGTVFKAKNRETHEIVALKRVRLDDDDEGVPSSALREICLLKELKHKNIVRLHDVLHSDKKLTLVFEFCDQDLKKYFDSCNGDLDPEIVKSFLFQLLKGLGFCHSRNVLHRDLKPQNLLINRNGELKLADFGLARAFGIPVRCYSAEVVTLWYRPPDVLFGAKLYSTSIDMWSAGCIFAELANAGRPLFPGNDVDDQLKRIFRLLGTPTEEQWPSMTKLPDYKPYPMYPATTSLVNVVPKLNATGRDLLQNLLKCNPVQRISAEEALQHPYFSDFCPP

What is called IC50 is the concentration that gives 50% inhibition.

Structures are written as SMILES.

This assay has as its target Cyclin-dependent kinase 5/CDK5 activator 1 (Homo sapiens, UniProt Q00535). Kind of assay: Inhibition of human recombinant CDK5/p25 after 30 mins by scintillation counting. The format is protein-complex assay.

Consider `COc1ccc2c(c1)[nH]c1c(C)nccc12` [HARMINE], for which the IC50 was above 10 µM.
